The values that follow come from patent US20240285810A1, “DEVELOPMENT OF A NOVEL PET PROBE FOR TARGETED BACTERIAL IMAGING” (published 2024).

The experiment has as its system E. coli K12. Briefly: myositis infection model imaged with the control probe.

As to ^18F-Fluoro-2-Deoxy-D-glucose, the “signal from the muscle injected with non-pathogenic commensal E. coli K12” value was “lack of a substantial signal”.
